Results published in publication PMC9822014, “Antibacterial Thiopeptide GE2270-Congeners from Nonomuraea jiangxiensis” (Molecules, 2022).
≈ marks a conversion by molar mass, not a printed value.

Test system: Staphylococcus aureus Rosenbach (ATCC 25923)
Test: Antibacterial microbroth dilution MIC/MBC against S. aureus
Type: cell-based
Procedure: The minimum inhibition concentration (MIC) and the minimum bactericidal/fungicidal concentration (MBC/MFC) were carried out using the microbroth dilution method according to the Clinical Laboratory Standards Institute (CLSI) guidelines, with some modifications. […] The tested compounds were then incubated together with bacterial cells at 37 °C for 24 h and with fungal spores at 25 °C for 72 h, respectively. The OD600 measurements were subsequentially carried out to evaluate the inhibitory effect of the compounds. To further determine the bactericidal and fungicidal effects of the compounds, 5 µL of the treated culture was transferred onto new media microplates. The plates were incubated under the same condition, followed by the OD600 measurement. […] The cells were then treated with the compounds for 72 h at 37 °C in the presence of 5% CO2. Any Cytotoxic effect was detected with PrestoBlue™ cell viability reagent (ThermoFisher Scientific, Waltham, MA, USA). The cells were read with a fluorescence reading at an excitation of 560 nm and an emission 590 nm. Standard inhibitors, gentamicin (Gibco, Waltham, MA, USA), amphotericin (Sigma-Aldrich, St. Louis, MO, USA) and puromycin (Sigma-Aldrich, St. Louis, MO, USA) were used as the assay controls for the antibacterial, antifungal and cytotoxicity assay. […]

SMILES: CNC(=O)C[C@@H]1NC(=O)c2csc(n2)-c2ccc(-c3nc(C(=O)N[C@@H](CO)C(=O)N4CCC[C@H]4C(N)=O)cs3)nc2-c2csc(n2)-c2csc(n2)[C@H]([C@@H](O)c2ccccc2)NC(=O)CNC(=O)c2nc(sc2COC)[C@H](C(C)C)NC(=O)c2nc1sc2C [Compound 6]
- MBC (ATCC25923, S. aureus Rosenbach ATCC 25923, treated culture transferred to new media, OD600, mean ± SD, triplicates, read-out: MBC90 [(μM) mean ± SD]): 31.8 ± 1.38 µM (≈ 41.6 µg/mL)
- MBC90 (minimal bactericidal concentration) (ATCC25923, read-out: MBC (IC90) / minimal bactericidal concentration (MBC90)): 31.8 µM (≈ 41.6 µg/mL)
